Assays:
DNMT1 = DNMT1 (Homo sapiens, UniProt P26358); experiment: DNMT1 biochemical activity, breaklight assay and/or SPA assay; conditions: binned activity in either the breaklight or the SPA assay
[1] = test system: erythroid progenitor cells (EPCs); experiment: Fetal hemoglobin (HbF) ELISA in day 7 erythroid progenitor cells; conditions: day 7 EPCs, 5 days;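 note: for fetal hemoglobin induction normalized to vehicle-treated cells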

The chains behind the UniProt entries cited, without tags or fusion partners.
UniProt P26358, whole entry: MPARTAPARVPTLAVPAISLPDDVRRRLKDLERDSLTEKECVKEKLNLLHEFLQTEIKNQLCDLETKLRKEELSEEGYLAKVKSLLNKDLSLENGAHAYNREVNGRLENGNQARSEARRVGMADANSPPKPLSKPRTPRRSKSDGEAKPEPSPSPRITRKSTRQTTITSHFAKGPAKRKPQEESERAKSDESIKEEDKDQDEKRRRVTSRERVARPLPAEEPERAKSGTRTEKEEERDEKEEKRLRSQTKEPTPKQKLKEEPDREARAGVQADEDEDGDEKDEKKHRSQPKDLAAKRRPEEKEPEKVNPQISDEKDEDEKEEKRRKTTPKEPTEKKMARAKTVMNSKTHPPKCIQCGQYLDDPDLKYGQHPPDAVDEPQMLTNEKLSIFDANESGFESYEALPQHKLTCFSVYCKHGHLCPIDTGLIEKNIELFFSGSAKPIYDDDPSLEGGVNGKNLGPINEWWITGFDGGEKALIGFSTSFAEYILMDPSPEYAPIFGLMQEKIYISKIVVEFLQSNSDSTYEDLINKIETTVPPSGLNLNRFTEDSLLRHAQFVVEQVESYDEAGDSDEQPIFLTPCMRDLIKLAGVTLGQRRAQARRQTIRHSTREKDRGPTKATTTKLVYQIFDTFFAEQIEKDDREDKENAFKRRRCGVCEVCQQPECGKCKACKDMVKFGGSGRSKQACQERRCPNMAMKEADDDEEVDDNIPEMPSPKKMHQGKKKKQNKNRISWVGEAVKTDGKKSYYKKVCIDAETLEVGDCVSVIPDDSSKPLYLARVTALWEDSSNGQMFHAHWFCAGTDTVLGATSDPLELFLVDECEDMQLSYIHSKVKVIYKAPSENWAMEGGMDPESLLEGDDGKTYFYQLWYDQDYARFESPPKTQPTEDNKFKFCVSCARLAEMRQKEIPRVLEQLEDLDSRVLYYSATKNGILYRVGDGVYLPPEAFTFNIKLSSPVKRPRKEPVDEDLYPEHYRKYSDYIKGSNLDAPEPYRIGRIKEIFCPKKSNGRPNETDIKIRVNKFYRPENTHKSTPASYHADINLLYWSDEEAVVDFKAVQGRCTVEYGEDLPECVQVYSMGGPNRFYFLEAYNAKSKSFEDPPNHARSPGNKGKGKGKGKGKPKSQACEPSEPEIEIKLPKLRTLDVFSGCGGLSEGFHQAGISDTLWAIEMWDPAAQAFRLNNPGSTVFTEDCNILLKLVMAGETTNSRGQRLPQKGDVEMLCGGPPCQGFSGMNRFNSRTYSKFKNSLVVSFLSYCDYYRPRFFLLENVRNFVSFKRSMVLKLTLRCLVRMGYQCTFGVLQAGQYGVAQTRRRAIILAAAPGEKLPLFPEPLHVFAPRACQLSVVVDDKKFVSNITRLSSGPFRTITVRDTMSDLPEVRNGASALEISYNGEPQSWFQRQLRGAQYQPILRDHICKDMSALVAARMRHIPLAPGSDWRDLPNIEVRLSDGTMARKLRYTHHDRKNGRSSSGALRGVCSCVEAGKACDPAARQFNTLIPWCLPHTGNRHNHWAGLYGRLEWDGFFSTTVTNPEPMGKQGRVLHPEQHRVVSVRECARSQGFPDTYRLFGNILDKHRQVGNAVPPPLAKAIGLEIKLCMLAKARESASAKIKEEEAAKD

SMILES: CCc1c(C#N)c(SC(C(N)=O)c2ccccc2)nc(N(C)CCNC(=O)C(N)=O)c1C#N (centres unmarked)
- DNMT1 BioChemical (pIC50 category) (DNMT1): D (Category D: ≥6.5)
- EPC ELISA (pEC50 category) [1]: C (Category C: 6.0 ≤ x < 6.5)
